Results on three compounds are retold here after US20230091472A1, “GALECTIN-3 INHIBITING C-GLYCOSIDE KETONES, ETHERS, AND ALCOHOLS” (GLYCOMIMETICS, INC., priority 2019, published 2023).

The chains behind the UniProt entries cited, without tags or fusion partners.
UniProt P17931, whole entry: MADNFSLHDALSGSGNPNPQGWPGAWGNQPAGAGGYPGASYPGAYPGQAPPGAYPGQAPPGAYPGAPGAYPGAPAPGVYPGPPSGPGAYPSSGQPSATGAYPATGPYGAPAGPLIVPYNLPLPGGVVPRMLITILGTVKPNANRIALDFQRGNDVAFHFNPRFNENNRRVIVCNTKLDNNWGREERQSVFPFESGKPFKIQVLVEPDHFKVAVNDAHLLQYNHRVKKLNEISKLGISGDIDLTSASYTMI

This experiment concerns the target galectin-3 (Homo sapiens, UniProt P17931). The experiment in a line: Galectin-3 Activity - ELISA Assay (inhibition of binding of galectin-3 to a Galβ1-3GlcNAc carbohydrate structure). The settings on record: read-out: IC50 (μM), Galectin-3 Antagonist Activity; competitive ELISA; galectin-3 binding to immobilized Galβ1-3GlcNAcβ1-3Galβ1-4GlcNAcβ-PAA-biotin polymer; A450 readout. The method, then: Galectin-3 antagonists were evaluated for their ability to inhibit binding of galectin-3 to a Galβ1-3GlcNAc carbohydrate structure. The detailed protocol was as follows. A 1 ug/mL suspension of a Galβ1-3GlcNAcβ1-3Galβ1-4GlcNAcβ-PAA-biotin polymer (Glycotech, catalog number 01-096) was prepared. A 100 uL aliquot of the polymer was added to the wells of a 96-well streptavidin-coated plate (R&D Systems, catalog number CP004). A 100 uL aliquot of 1× Tris Buffered Saline (TBS, Sigma, catalog number T5912-10X) was added to control wells. The polymer was allowed to bind to the streptavidin-coated wells for 1.5 hours at room temperature. The contents of the wells were discarded and 200 uL of 1×TBS containing 1% bovine serum albumin (BSA) was added to each well as a blocking reagent and the plate was kept at room temperature for 30 minutes. The wells were washed three times with 1×TBS containing 0.1% BSA. A serial dilution of test compounds was prepared in a separate V-bottom plate (Corning, catalog number 3897). A 75 uL aliquot of the highest concentration of the compound to be tested was added to the first well in a column of the V-bottom plate then 15 ul were serially transferred into 60 uL 1×TBS through the remaining wells in the column to generate a 1 to 5 serial dilution. A 60 uL aliquot of 2 ug/mL galectin-3 (IBL, catalog number IBATGPO414) was added to each well in the V-bottom plate. A 100 uL aliquot of the galectin-3/test compound mixture was transferred from the V-bottom plate into the assay plate containing the Galβ1-3GlcNAc polymer. Four sets of control wells in the assay plate were prepared in duplicate containing 1) both Galβ1-3GlcNAc polymer and galectin-3, 2) neither the polymer nor galectin-3, 3) galectin-3 only, no polymer, or 4) polymer only, no galectin-3. The plate was gently rocked for 1.5 hours at room temperature. The wells were washed four times with TBS/0.1% BSA. […] The absorbance at 450 nm (A450) was measured using a FlexStation 3 plate reader (Molecular Devices). […]
As for `CO[C@H]1[C@H]([C@@H](COC(C)C)OCc2ccc(Cl)cc2)O[C@H](CO)[C@H](O)[C@@H]1n1cc(-c2cc(F)c(F)c(F)c2)nn1`, the IC50 is 1.18 µM.
The value for `CO[C@H]1[C@H]([C@H](OCc2ccc(Cl)cc2)[C@H](O)c2cccs2)O[C@H](CO)[C@H](O)[C@@H]1n1cc(-c2cc(F)c(F)c(F)c2)nn1` was 0.42 µM.
As for `CO[C@H]1[C@H]([C@H](OCc2ccc(Cl)cc2)[C@@H](O)c2cccs2)O[C@H](CO)[C@H](O)[C@@H]1n1cc(-c2cc(F)c(F)c(F)c2)nn1`, the IC50 was determined as 3.52 µM.

A word on the IC50: it is the concentration at which inhibition is half-maximal.
